Experimental data published in PMC2362153, “Increased accumulation of doxorubicin and doxorubicinol in cardiac tissue of mice lacking mdr1a P-glycoprotein” (British Journal of Cancer, 1999).

Assay: Tissue distribution of doxorubicin and metabolites in wild-type and mdr1a(-/-) mice (HPLC)
Text: Blank human plasma was obtained from healthy donors. […] All biological specimens were stored at -20C until analysis. […] However, […]

COc1cccc2c1C(=O)c1c(O)c3c(c(O)c1C2=O)C[C@@](O)(C(=O)CO)C[C@@H]3O[C@H]1C[C@H](N)[C@H](O)[C@H](C)O1 [doxorubicin]
Tissue level (brain, 1 h after i.v. 5 mg kg-1 doxorubicin, mdr1a(-/-) mice): 0.28 nmol g-1 tissue | Tissue level (brain, 1 h after i.v. 5 mg kg-1 doxorubicin, wild-type mice): 0.10 nmol g-1 tissue | Tissue level (brain, 4 h after i.v. 5 mg kg-1 doxorubicin, mdr1a(-/-) mice): 0.33 nmol g-1 tissue | Tissue level (brain, 4 h after i.v. 5 mg kg-1 doxorubicin, wild-type mice): 0.12 nmol g-1 tissue | Tissue level (brain, 24 h after i.v. 5 mg kg-1 doxorubicin, mdr1a(-/-) mice): 0.21 nmol g-1 tissue | Tissue level (brain, 24 h after i.v. 5 mg kg-1 doxorubicin, wild-type mice): 0.06 nmol g-1 tissue | Tissue level (breast, 1 h after i.v. 5 mg kg-1 doxorubicin, mdr1a(-/-) mice): 6.46 nmol g-1 tissue | Tissue level (breast, 1 h after i.v. 5 mg kg-1 doxorubicin, wild-type mice): 5.71 nmol g-1 tissue | Tissue level (breast, 4 h after i.v. 5 mg kg-1 doxorubicin, mdr1a(-/-) mice): 7.11 nmol g-1 tissue | Tissue level (breast, 4 h after i.v. 5 mg kg-1 doxorubicin, wild-type mice): 4.25 nmol g-1 tissue | Tissue level (breast, 24 h after i.v. 5 mg kg-1 doxorubicin, mdr1a(-/-) mice): 5.42 nmol g-1 tissue | Tissue level (breast, 24 h after i.v. 5 mg kg-1 doxorubicin, wild-type mice): 1.47 nmol g-1 tissue | Tissue level (caecum, 1 h after i.v. 5 mg kg-1 doxorubicin, mdr1a(-/-) mice): 9.64 nmol g-1 tissue | Tissue level (caecum, 1 h after i.v. 5 mg kg-1 doxorubicin, wild-type mice): 7.95 nmol g-1 tissue | Tissue level (caecum, 4 h after i.v. 5 mg kg-1 doxorubicin, mdr1a(-/-) mice): 11.3 nmol g-1 tissue | Tissue level (caecum, 4 h after i.v. 5 mg kg-1 doxorubicin, wild-type mice): 9.84 nmol g-1 tissue | Tissue level (caecum, 24 h after i.v. 5 mg kg-1 doxorubicin, mdr1a(-/-) mice): 6.96 nmol g-1 tissue | Tissue level (caecum, 24 h after i.v. 5 mg kg-1 doxorubicin, wild-type mice): 2.81 nmol g-1 tissue | Tissue level (colon, 1 h after i.v. 5 mg kg-1 doxorubicin, mdr1a(-/-) mice): 9.65 nmol g-1 tissue | Tissue level (colon, 1 h after i.v. 5 mg kg-1 doxorubicin, wild-type mice): 8.17 nmol g-1 tissue | Tissue level (colon, 4 h after i.v. 5 mg kg-1 doxorubicin, mdr1a(-/-) mice): 12.6 nmol g-1 tissue | Tissue level (colon, 4 h after i.v. 5 mg kg-1 doxorubicin, wild-type mice): 13.0 nmol g-1 tissue | Tissue level (colon, 24 h after i.v. 5 mg kg-1 doxorubicin, mdr1a(-/-) mice): 7.70 nmol g-1 tissue | Tissue level (colon, 24 h after i.v. 5 mg kg-1 doxorubicin, wild-type mice): 2.99 nmol g-1 tissue | Tissue level (heart, 1 h after i.v. 5 mg kg-1 doxorubicin, mdr1a(-/-) mice): 23.6 nmol g-1 tissue | Tissue level (heart, 1 h after i.v. 5 mg kg-1 doxorubicin, wild-type mice): 21.5 nmol g-1 tissue | Tissue level (heart, 4 h after i.v. 5 mg kg-1 doxorubicin, mdr1a(-/-) mice): 13.7 nmol g-1 tissue | Tissue level (heart, 4 h after i.v. 5 mg kg-1 doxorubicin, wild-type mice): 12.6 nmol g-1 tissue | Tissue level (heart, 24 h after i.v. 5 mg kg-1 doxorubicin, wild-type mice): 1.69 nmol g-1 tissue | Tissue level (kidney, 1 h after i.v. 5 mg kg-1 doxorubicin, mdr1a(-/-) mice): 33.2 nmol g-1 tissue | Tissue level (kidney, 4 h after i.v. 5 mg kg-1 doxorubicin, mdr1a(-/-) mice): 21.6 nmol g-1 tissue | Tissue level (kidney, 4 h after i.v. 5 mg kg-1 doxorubicin, wild-type mice): 22.3 nmol g-1 tissue | Tissue level (kidney, 24 h after i.v. 5 mg kg-1 doxorubicin, mdr1a(-/-) mice): 9.05 nmol g-1 tissue | Tissue level (kidney, 24 h after i.v. 5 mg kg-1 doxorubicin, wild-type mice): 5.68 nmol g-1 tissue | Tissue level (liver, 1 h after i.v. 5 mg kg-1 doxorubicin, mdr1a(-/-) mice): 44.7 nmol g-1 tissue | Tissue level (liver, 1 h after i.v. 5 mg kg-1 doxorubicin, wild-type mice): 20.6 nmol g-1 tissue | Tissue level (liver, 4 h after i.v. 5 mg kg-1 doxorubicin, mdr1a(-/-) mice): 45.3 nmol g-1 tissue | Tissue level (liver, 4 h after i.v. 5 mg kg-1 doxorubicin, wild-type mice): 10.2 nmol g-1 tissue | Tissue level (liver, 24 h after i.v. 5 mg kg-1 doxorubicin, mdr1a(-/-) mice): 13.6 nmol g-1 tissue | Tissue level (liver, 24 h after i.v. 5 mg kg-1 doxorubicin, wild-type mice): 1.69 nmol g-1 tissue | Tissue level (lung, 1 h after i.v. 5 mg kg-1 doxorubicin, mdr1a(-/-) mice): 25.3 nmol g-1 tissue | Tissue level (lung, 1 h after i.v. 5 mg kg-1 doxorubicin, wild-type mice): 23.3 nmol g-1 tissue | Tissue level (lung, 4 h after i.v. 5 mg kg-1 doxorubicin, mdr1a(-/-) mice): 24.5 nmol g-1 tissue | Tissue level (lung, 4 h after i.v. 5 mg kg-1 doxorubicin, wild-type mice): 23.4 nmol g-1 tissue | Tissue level (lung, 24 h after i.v. 5 mg kg-1 doxorubicin, mdr1a(-/-) mice): 18.9 nmol g-1 tissue | Tissue level (lung, 24 h after i.v. 5 mg kg-1 doxorubicin, wild-type mice): 5.05 nmol g-1 tissue | Tissue level (muscle, 1 h after i.v. 5 mg kg-1 doxorubicin, mdr1a(-/-) mice): 6.03 nmol g-1 tissue | Tissue level (muscle, 1 h after i.v. 5 mg kg-1 doxorubicin, wild-type mice): 6.95 nmol g-1 tissue | Tissue level (muscle, 4 h after i.v. 5 mg kg-1 doxorubicin, mdr1a(-/-) mice): 6.58 nmol g-1 tissue | Tissue level (muscle, 4 h after i.v. 5 mg kg-1 doxorubicin, wild-type mice): 7.92 nmol g-1 tissue | Tissue level (muscle, 24 h after i.v. 5 mg kg-1 doxorubicin, mdr1a(-/-) mice): 1.88 nmol g-1 tissue | Tissue level (muscle, 24 h after i.v. 5 mg kg-1 doxorubicin, wild-type mice): 1.35 nmol g-1 tissue | Tissue level (ovary, 1 h after i.v. 5 mg kg-1 doxorubicin, mdr1a(-/-) mice): 9.58 nmol g-1 tissue | Tissue level (ovary, 1 h after i.v. 5 mg kg-1 doxorubicin, wild-type mice): 7.41 nmol g-1 tissue | Tissue level (ovary, 4 h after i.v. 5 mg kg-1 doxorubicin, mdr1a(-/-) mice): 9.15 nmol g-1 tissue | Tissue level (ovary, 4 h after i.v. 5 mg kg-1 doxorubicin, wild-type mice): 6.74 nmol g-1 tissue | Tissue level (ovary, 24 h after i.v. 5 mg kg-1 doxorubicin, mdr1a(-/-) mice): 5.85 nmol g-1 tissue | Tissue level (ovary, 24 h after i.v. 5 mg kg-1 doxorubicin, wild-type mice): 4.76 nmol g-1 tissue | Tissue level (small gut, 1 h after i.v. 5 mg kg-1 doxorubicin, mdr1a(-/-) mice): 17.5 nmol g-1 tissue | Tissue level (small gut, 1 h after i.v. 5 mg kg-1 doxorubicin, wild-type mice): 14.2 nmol g-1 tissue | Tissue level (small gut, 4 h after i.v. 5 mg kg-1 doxorubicin, mdr1a(-/-) mice): 18.7 nmol g-1 tissue | Tissue level (small gut, 4 h after i.v. 5 mg kg-1 doxorubicin, wild-type mice): 14.6 nmol g-1 tissue | Tissue level (small gut, 24 h after i.v. 5 mg kg-1 doxorubicin, mdr1a(-/-) mice): 13.0 nmol g-1 tissue | Tissue level (small gut, 24 h after i.v. 5 mg kg-1 doxorubicin, wild-type mice): 3.56 nmol g-1 tissue | Tissue level (spleen, 1 h after i.v. 5 mg kg-1 doxorubicin, mdr1a(-/-) mice): 18.9 nmol g-1 tissue | Tissue level (spleen, 1 h after i.v. 5 mg kg-1 doxorubicin, wild-type mice): 16.6 nmol g-1 tissue | Tissue level (spleen, 4 h after i.v. 5 mg kg-1 doxorubicin, mdr1a(-/-) mice): 22.5 nmol g-1 tissue | Tissue level (spleen, 4 h after i.v. 5 mg kg-1 doxorubicin, wild-type mice): 23.7 nmol g-1 tissue | Tissue level (spleen, 24 h after i.v. 5 mg kg-1 doxorubicin, mdr1a(-/-) mice): 29.2 nmol g-1 tissue | Tissue level (spleen, 24 h after i.v. 5 mg kg-1 doxorubicin, wild-type mice): 16.6 nmol g-1 tissue | Tissue level (stomach, 1 h after i.v. 5 mg kg-1 doxorubicin, mdr1a(-/-) mice): 7.21 nmol g-1 tissue | Tissue level (stomach, 1 h after i.v. 5 mg kg-1 doxorubicin, wild-type mice): 7.68 nmol g-1 tissue | Tissue level (stomach, 4 h after i.v. 5 mg kg-1 doxorubicin, mdr1a(-/-) mice): 11.2 nmol g-1 tissue | Tissue level (stomach, 4 h after i.v. 5 mg kg-1 doxorubicin, wild-type mice): 7.40 nmol g-1 tissue | Tissue level (stomach, 24 h after i.v. 5 mg kg-1 doxorubicin, mdr1a(-/-) mice): 5.82 nmol g-1 tissue | Tissue level (stomach, 24 h after i.v. 5 mg kg-1 doxorubicin, wild-type mice): 3.25 nmol g-1 tissue | Tissue level (uterus, 1 h after i.v. 5 mg kg-1 doxorubicin, wild-type mice): 7.98 nmol g-1 tissue | Tissue level (uterus, 4 h after i.v. 5 mg kg-1 doxorubicin, mdr1a(-/-) mice): 8.07 nmol g-1 tissue | Tissue level (uterus, 4 h after i.v. 5 mg kg-1 doxorubicin, wild-type mice): 12.1 nmol g-1 tissue | Tissue level (uterus, 24 h after i.v. 5 mg kg-1 doxorubicin, mdr1a(-/-) mice): 12.9 nmol g-1 tissue | Tissue level (uterus, 24 h after i.v. 5 mg kg-1 doxorubicin, wild-type mice): 6.78 nmol g-1 tissue
